Only a part is listed here, and it is no random draw. Results filed as inconclusive are left out. Activity calls are given as the source filed them. Cut-off read from the data, not from the text of the source: active = max response below about -50%; inconclusive = no clear call, values can overlap the other calls; inactive = above that.
% is set by controls: 0 for no effect and ±100 for the full control effect.

By UniProt entry, the sequences of proteins in these tests, tags left out.
UniProt P35462, whole entry: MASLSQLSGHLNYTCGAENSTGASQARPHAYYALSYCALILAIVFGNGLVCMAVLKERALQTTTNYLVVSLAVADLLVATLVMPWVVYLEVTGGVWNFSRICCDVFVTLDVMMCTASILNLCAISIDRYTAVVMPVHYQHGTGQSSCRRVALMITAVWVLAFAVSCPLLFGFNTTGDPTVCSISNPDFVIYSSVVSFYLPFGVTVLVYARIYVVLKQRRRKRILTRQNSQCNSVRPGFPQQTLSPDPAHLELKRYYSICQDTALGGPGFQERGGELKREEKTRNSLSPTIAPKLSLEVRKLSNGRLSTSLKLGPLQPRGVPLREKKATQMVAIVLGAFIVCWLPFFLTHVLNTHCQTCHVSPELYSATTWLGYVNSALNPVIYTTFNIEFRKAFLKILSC

The target in this assay is D(3) dopamine receptor (Homo sapiens) (UniProt P35462). The assay is described as follows: qHTS of D3 Dopamine Receptor Antagonist: qHTS. Particulars: D3R cells, DiscoveRx beta-arrestin luminescence, antagonist mode; stronger effect = lower value. From the text: D3 DARs represent a very important target for the treatment of several neuropsychiatric disorders. Indeed, one of the most promising therapeutic applications for the D3 DAR is in the area of addiction and related disorders. […] These findings have been observed with a number of addictive substances including cocaine, amphetamine, nicotine, and alcohol. […] Antagonism of the D3 DAR may also be therapeutic in the treatment of schizophrenia or psychosis. […] Since the D3 DAR is expressed in areas of the CNS associated with the control of mood and emotion, it has been hypothesized that selective antagonism of the D3 DAR may be effective in treating psychosis without inducing the motor side effects typically seen with D2 DAR antagonists.
This part of the project aims to discover novel antagonist.
NIH Chemical Genomics Center [NCGC]
NIH Molecular Libraries Probe Centers Network [MLPCN]
Assay Submitter (PI): David Sibley, NINDS
Freshly passaged cells are plated in 1536 well white, solid bottom plates at a density of 1500 cells/well in 3microl of complete media. After an overnight incubation at 37 degrees C in 5% CO2, cells are loaded with 23nl of test compound from the compound library (as well as dopamine controls) using a 1536 pintool and incubated at 37 degrees C for 90 minutes. Two microliters of DiscoveRx reagent is then added to all cells, and they are incubated for an additional 30 - 60 minutes at room temperature. Following incubation, luminescence is measured on a ViewLux CCD-based luminometer reader using a 20 sec exposure time.
On the technique in general: Quantitative high-throughput screening tests each substance at several concentrations.
Turning to `O=C(OC1CN2CCC1CC2)C1c2ccccc2C=Cc2ccccc21` (centres undefined), the max response, negative = inhibition is inactive: 8.13%.

Consider `O=C(O)c1cccc(Nc2c([N+](=O)[O-])cc([N+](=O)[O-])cc2[N+](=O)[O-])c1`, for which the max response, negative = inhibition is active: -112%.

Regarding `O=c1[nH]c2ccccc2n1C1CCN(C(c2cccs2)c2nnnn2C2CCCC2)CC1` (centres undefined), the max response, negative = inhibition was inactive: 12.1%.

As for `CCCCn1nnnc1C(c1cccc(OC)c1OC)N1CCC(n2c(=O)[nH]c3ccccc32)CC1` (centres undefined), the max response, negative = inhibition is inactive: 5.38%.

`CCOC(=O)N1CCC(Nc2ccc(C)cc2)CC1`: the max response, negative = inhibition was inactive: 20.6%.

As to `N/C(=N\O)c1c(N)no[n+]1[O-]`, the max response, negative = inhibition was inactive: 0%.

With `O=c1[nH]c2ccccc2n1C1CCN(C(c2cccs2)c2nnnn2C2CCCCC2)CC1` (centres undefined), the max response, negative = inhibition was inactive: 24.2%.

In the case of `COc1ccc(C(=O)NCC2(N3CCOCC3)CCCCC2)cc1OC`, the max response, negative = inhibition was inactive: -1.18%.

With `O=c1[nH]c2ccccc2n1C1CCN(C(c2ccnc3ccccc23)c2nnnn2C2CCCC2)CC1` (centres undefined), the max response, negative = inhibition is inactive: 45%.

Regarding `CCCCn1nnnc1C(c1ccccc1)N1CCC(n2c(=O)[nH]c3ccccc32)CC1` (centres undefined), the max response, negative = inhibition is inactive: 23.5%.

`COc1cc(C(=O)NCC2(N3CCOCC3)CCCCC2)cc(OC)c1C`: the max response, negative = inhibition is inactive: -11.4%.

For `O=C(NCC1(N2CCOCC2)CCCCC1)c1cc(Br)ccc1Cl`, the max response, negative = inhibition was inactive: 2.12%.

On to `CC(C)(C)n1nnnc1C(c1cccc2ccccc12)N1CCC(n2c(=O)[nH]c3ccccc32)CC1` (centres undefined), for which the max response, negative = inhibition was inactive: 22.9%.

For the compound `CN(C)C1(CNC(=O)c2cccc(C#N)c2)CCCCC1`, the max response, negative = inhibition is inactive: 12%.

In the case of `O=c1[nH]c2ccccc2n1C1CCN(C(c2ccccc2)c2nnnn2C2CCCC2)CC1` (centres undefined), the max response, negative = inhibition is inactive: 0%.

In the case of `CCCN1CCC(Nc2cc(OC)cc(OC)c2)CC1`, the max response, negative = inhibition was inactive: -18.6%.

Regarding `Cc1cc(N(CCCl)CCCl)ccc1C=O`, the max response, negative = inhibition was inactive: 5.82%.

For `CCOC(=O)C(CC)C1=NC(C)(C)Cc2ccccc21.O=[N+]([O-])c1cc([N+](=O)[O-])c(O)c([N+](=O)[O-])c1` (centres undefined), the max response, negative = inhibition was inactive: -22.9%.

On to `N#Cc1ccc(C(=O)NCC2(N3CCCCC3)CCCCC2)cc1`, for which the max response, negative = inhibition was inactive: 7.34%.

Regarding `CC(C)(C)OC(=O)N1CCC(N(C(=O)c2ccccc2)c2ccc(Cl)cc2)CC1`, the max response, negative = inhibition was inactive: 0%.

Consider `O=C(NCC1(N2CCCCC2)CCCCC1)c1ccco1`, for which the max response, negative = inhibition was inactive: -20.2%.

As for `Cn1c(=O)[nH]cc(N(CCCl)CCCl)c1=O`, the max response, negative = inhibition is inactive: 0.66%.

In the case of `CN(C)c1ccc(C(=O)NCC2(N3CCCCC3)CCCCC2)cc1`, the max response, negative = inhibition was inactive: -8.48%.

For the compound `Cc1ccccc1NC1(C#N)CCN(Cc2ccccc2)CC1`, the max response, negative = inhibition is inactive: 1.6%.

Regarding `CC(C)(C)n1nnnc1C(c1ccnc2ccccc12)N1CCC(n2c(=O)[nH]c3ccccc32)CC1` (centres undefined), the max response, negative = inhibition was inactive: 7.92%.

As for `CCN1CCC(Nc2cccc(F)c2)CC1`, the max response, negative = inhibition was inactive: -7.08%.

As to `Cc1ccc(C(=O)NCC2(N3CCCCC3)CCCCC2)o1`, the max response, negative = inhibition was inactive: 12.8%.

For `Cc1ccc(NC2(C#N)CCN(Cc3ccccc3)CC2)cc1`, the max response, negative = inhibition is inactive: -16.8%.

Regarding `CC(=O)N(c1ccccc1)C1CCNCC1`, the max response, negative = inhibition was inactive: 11.7%.

For `COc1cccc(C(c2nnnn2C2CCCCC2)N2CCC(n3c(=O)[nH]c4ccccc43)CC2)c1OC` (centres undefined), the max response, negative = inhibition is inactive: 93%.

With `CCC(c1nnnn1C1CCCCC1)N1CCC(n2c(=O)[nH]c3ccccc32)CC1` (centres undefined), the max response, negative = inhibition is inactive: 12.2%.

As for `O=c1[nH]c2ccccc2n1C1CCN(C(c2ccnc3ccccc23)c2nnnn2C2CCCCC2)CC1` (centres undefined), the max response, negative = inhibition was inactive: 62.7%.

Turning to `CN1CCC(Nc2ccc(Cl)cc2)CC1`, the max response, negative = inhibition was inactive: -4.91%.

For the compound `COc1cccc(C(c2nnnn2C2CCCC2)N2CCC(n3c(=O)[nH]c4ccccc43)CC2)c1OC` (centres undefined), the max response, negative = inhibition is inactive: 64.4%.

`COc1cc(OC)cc(C(=O)NCC2(N3CCOCC3)CCCCC2)c1`: the max response, negative = inhibition was inactive: 13.6%.

In the case of `COc1cccc(C(=O)N(c2cc(C)cc(C)c2)C2CCN(C(=O)OC(C)(C)C)CC2)c1`, the max response, negative = inhibition was inactive: 1.15%.

Consider `CCC(CO)(C(=O)OC1CN2CCC1CC2)c1ccccc1` (centres undefined), for which the max response, negative = inhibition is inactive: 16.5%.

Take `CC(C)(C)OC(=O)N1CCC(Nc2ccccc2)CC1`: the max response, negative = inhibition is inactive: -1.07%.

As to `O=C(O)C1(Nc2ccccc2)CCN(Cc2ccccc2)CC1`, the max response, negative = inhibition is inactive: -23.8%.

Consider `NN(c1ccccc1)C1CCN(CCc2ccccc2)CC1`, for which the max response, negative = inhibition is inactive: 0%.

For the compound `CCCOc1ccc(C(=O)NCC2(N(C)C)CCCCC2)cc1`, the max response, negative = inhibition was inactive: 2.71%.

For the compound `O=c1[nH]c2ccccc2n1C1CCN(C(c2cc3ccccc3o2)c2nnnn2C2CCCC2)CC1` (centres undefined), the max response, negative = inhibition was inactive: 36.2%.

As for `CCOc1ncccc1C(=O)NCC1(N2CCOCC2)CCCCC1`, the max response, negative = inhibition is inactive: -8.54%.

For `CN1CCC(Nc2ccc(F)c(Cl)c2)CC1`, the max response, negative = inhibition is inactive: -11.9%.

In the case of `O=C(OC1CN2CCC1CC2)C1c2ccccc2Oc2ccccc21` (centres undefined), the max response, negative = inhibition was inactive: -3.24%.

`O=c1[nH]c2ccccc2n1C1CCN(C(c2cc3ccccc3o2)c2nnnn2C2CCCCC2)CC1` (centres undefined): the max response, negative = inhibition was inactive: 53.7%.

On to `N#CC1(Nc2ccccc2)CCN(Cc2ccccc2)CC1`, for which the max response, negative = inhibition is inactive: -12.7%.

As to `O=C1C(O)=C([N+](=O)[O-])C(=O)C(O)=C1[N+](=O)[O-]`, the max response, negative = inhibition is inactive: -18.9%.

Turning to `COc1ccc(Cl)cc1C(=O)NCC1(N2CCOCC2)CCCCC1`, the max response, negative = inhibition is inactive: -3.75%.

As to `CCOC(=O)N1CCC(Nc2ccc(OC)cc2)CC1`, the max response, negative = inhibition was inactive: 5.11%.

As to `O=c1[nH]c2ccccc2n1C1CCN(C(c2ccccc2OC(F)(F)F)c2nnnn2C2CCCCC2)CC1` (centres undefined), the max response, negative = inhibition is inactive: 101%.

With `O=C(NCC1(N2CCCCC2)CCCCC1)c1ccc(Cl)nc1`, the max response, negative = inhibition is inactive: 5.79%.

Regarding `Cc1cc(C)cc(N(C(=O)c2ccccc2)C2CCN(C(=O)OC(C)(C)C)CC2)c1`, the max response, negative = inhibition is inactive: -21.7%.

With `O=C(NCC1(N2CCOCC2)CCCCC1)c1cc2ccccc2o1`, the max response, negative = inhibition is inactive: 0%.

As for `CSc1ccccc1C(=O)NCC1(N2CCCCC2)CCCCC1`, the max response, negative = inhibition is inactive: -13.9%.

On to `COc1ccc(C(=O)NCC2(N3CCCCC3)CCCCC2)cc1`, for which the max response, negative = inhibition is inactive: -17.8%.

For the compound `CCC(c1nnnn1C1CCCC1)N1CCC(n2c(=O)[nH]c3ccccc32)CC1` (centres undefined), the max response, negative = inhibition was inactive: 1.15%.

Consider `COc1ccc(C(=O)NCC2(N3CCCCC3)CCCCC2)c(OC)c1OC`, for which the max response, negative = inhibition was inactive: -4.13%.

As for `CC(C)(C)OC(=O)N1CCC(N(C(=O)c2ccccc2)c2ccc(F)cc2)CC1`, the max response, negative = inhibition was inactive: 3.37%.

The record behind these values is PubChem BioAssay AID652054 (National Center for Advancing Translational Sciences (NCATS), 2013).
